Laboratory results taken from IntAct's records for PubMed 35512704.

B1: RAC-alpha serine/threonine-protein kinase (Homo sapiens), P31749 (parent)
chain: MSDVAIVKEGWLHKRGEYIKTWRPRYFLLKNDGTFIGYKERPQDVDQREAPLNNFSVAQCQLMKTERPRPNTFIIRCLQWTTVIERTFHVETPEEREEWTTAIQTVADGLKKQEEEEMDFRSGSPSDNSGAEEMEVSLAKPKHRVTMNEFEYLKLLGKGTFGKVILVKEKATGRYYAMKILKKEVIVAKDEVAHTLTENRVLQNSRHPFLTALKYSFQTHDRLCFVMEYANGGELFFHLSRERVFSEDRARFYGAEIVSALDYLHSEKNVVYRDLKLENLMLDKDGHIKITDFGLCKEGIKDGATMKTFCGTPEYLAPEVLEDNDYGRAVDWWGLGVVMYEMMCGRLPFYNQDHEKLFELILMEEIRFPRTLGPEAKSLLSGLLKKDPKQRLGGGSEDAKEIMQHRFFAGIVWQHVYEKKLSPPFKPQVTSETDTRYFDEEFTAQMITITPPDQDDSMECVDSERRPHFPQFSYSASGTA
partner: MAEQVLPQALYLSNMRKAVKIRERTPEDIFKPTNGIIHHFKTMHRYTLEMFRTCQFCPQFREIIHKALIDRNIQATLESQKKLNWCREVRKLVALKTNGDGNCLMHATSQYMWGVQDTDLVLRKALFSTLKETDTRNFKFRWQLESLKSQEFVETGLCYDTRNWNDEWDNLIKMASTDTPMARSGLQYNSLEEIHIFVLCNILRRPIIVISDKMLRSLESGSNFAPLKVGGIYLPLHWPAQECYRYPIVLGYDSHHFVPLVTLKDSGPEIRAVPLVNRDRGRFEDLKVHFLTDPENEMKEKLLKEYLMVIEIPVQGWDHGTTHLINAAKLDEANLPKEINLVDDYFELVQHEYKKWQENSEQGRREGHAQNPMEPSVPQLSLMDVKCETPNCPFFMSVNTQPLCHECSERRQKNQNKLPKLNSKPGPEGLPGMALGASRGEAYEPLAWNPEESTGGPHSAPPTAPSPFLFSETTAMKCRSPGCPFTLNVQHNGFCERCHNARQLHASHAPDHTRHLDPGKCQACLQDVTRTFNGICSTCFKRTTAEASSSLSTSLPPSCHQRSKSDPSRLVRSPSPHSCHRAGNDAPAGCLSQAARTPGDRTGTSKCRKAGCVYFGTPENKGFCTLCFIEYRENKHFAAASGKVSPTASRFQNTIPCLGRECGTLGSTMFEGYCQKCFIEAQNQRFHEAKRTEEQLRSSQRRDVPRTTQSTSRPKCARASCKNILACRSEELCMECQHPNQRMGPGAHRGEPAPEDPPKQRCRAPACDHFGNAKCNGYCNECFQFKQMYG
B2: RAC-alpha serine/threonine-protein kinase (Homo sapiens), P31749 (parent)
chain: B1 chain
partner: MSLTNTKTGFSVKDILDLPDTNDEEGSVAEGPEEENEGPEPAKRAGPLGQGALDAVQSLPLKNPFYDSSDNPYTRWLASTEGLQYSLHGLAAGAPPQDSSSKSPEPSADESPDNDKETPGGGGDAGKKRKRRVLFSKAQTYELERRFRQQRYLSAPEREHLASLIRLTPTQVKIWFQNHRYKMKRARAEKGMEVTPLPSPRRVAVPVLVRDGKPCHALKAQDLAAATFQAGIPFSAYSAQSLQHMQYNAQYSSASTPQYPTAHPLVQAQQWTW
B3: RAC-alpha serine/threonine-protein kinase (Homo sapiens), P31749 (parent)
chain: B1 chain
partner: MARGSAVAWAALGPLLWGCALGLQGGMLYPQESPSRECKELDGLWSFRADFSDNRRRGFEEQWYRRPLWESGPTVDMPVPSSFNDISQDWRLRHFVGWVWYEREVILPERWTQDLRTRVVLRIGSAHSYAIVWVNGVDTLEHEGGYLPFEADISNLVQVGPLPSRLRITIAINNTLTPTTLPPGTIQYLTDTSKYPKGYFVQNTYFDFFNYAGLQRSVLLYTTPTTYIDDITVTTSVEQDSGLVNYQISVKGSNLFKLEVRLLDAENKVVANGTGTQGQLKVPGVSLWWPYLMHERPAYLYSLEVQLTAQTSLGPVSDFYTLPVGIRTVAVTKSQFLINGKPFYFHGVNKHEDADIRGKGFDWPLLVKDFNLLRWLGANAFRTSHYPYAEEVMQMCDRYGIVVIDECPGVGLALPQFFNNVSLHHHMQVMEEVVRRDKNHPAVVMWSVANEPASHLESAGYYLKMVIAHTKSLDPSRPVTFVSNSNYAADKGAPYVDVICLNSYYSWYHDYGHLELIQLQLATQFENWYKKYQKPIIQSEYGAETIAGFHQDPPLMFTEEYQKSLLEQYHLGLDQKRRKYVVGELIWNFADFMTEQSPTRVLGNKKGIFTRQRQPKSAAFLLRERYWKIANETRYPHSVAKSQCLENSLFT
B4: RAC-alpha serine/threonine-protein kinase (Homo sapiens), P31749 (parent)
chain: B1 chain
partner: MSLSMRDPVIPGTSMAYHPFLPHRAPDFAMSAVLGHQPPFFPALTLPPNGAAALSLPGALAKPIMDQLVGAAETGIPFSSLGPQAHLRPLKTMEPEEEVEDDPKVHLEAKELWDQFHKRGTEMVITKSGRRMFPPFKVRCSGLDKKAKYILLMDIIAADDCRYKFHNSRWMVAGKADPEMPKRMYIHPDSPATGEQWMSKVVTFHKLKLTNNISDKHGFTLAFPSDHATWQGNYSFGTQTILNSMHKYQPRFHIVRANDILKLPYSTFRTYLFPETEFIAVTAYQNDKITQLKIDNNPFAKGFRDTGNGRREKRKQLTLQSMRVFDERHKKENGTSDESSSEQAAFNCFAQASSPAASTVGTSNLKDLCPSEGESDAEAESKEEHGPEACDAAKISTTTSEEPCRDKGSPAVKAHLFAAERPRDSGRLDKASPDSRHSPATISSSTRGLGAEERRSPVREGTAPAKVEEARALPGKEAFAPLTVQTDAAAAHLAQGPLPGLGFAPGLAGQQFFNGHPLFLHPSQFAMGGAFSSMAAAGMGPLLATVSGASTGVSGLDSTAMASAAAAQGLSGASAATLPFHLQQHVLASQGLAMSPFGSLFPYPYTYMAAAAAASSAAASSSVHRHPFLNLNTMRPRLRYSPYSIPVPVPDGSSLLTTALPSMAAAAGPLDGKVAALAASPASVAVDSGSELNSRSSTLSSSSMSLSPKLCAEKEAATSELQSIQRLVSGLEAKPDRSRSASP
B5: RAC-alpha serine/threonine-protein kinase (Homo sapiens), P31749 (parent)
chain: B1 chain
partner: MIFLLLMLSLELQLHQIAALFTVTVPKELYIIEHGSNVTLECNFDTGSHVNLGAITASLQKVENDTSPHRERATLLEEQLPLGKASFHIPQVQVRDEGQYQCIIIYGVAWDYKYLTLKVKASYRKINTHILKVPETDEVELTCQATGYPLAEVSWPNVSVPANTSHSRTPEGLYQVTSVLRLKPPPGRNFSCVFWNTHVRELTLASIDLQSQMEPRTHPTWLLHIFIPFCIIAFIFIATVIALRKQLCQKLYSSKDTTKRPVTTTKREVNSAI
B6: RAC-alpha serine/threonine-protein kinase (Homo sapiens), P31749 (parent)
chain: B1 chain
partner: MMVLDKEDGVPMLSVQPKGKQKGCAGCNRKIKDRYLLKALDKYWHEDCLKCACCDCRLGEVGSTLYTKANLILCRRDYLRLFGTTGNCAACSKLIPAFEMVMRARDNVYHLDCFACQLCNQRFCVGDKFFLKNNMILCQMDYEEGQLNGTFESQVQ

Variants of: B1
Conditions: with tnap3_human TNFAIP3, P21580

| effect of a mutation on the interaction | Variant |
| --- | --- |
| with no effect | E17K |

Variants of: B2
Conditions: with nkx22_human NKX2-2, O95096

| effect of a mutation on the interaction | Variant |
| --- | --- |
| with no effect | E17K |

Variants of: B3
Conditions: with bglr_human GUSB

| effect of a mutation on the interaction | Variant |
| --- | --- |
| with no effect | E17K |

Variants of: B4
Conditions: with tbx3_human TBX3, O15119

| effect of a mutation on the interaction | Variant |
| --- | --- |
| with no effect | E17K |

Variants of: B5
Conditions: with pd1l2_human PDCD1LG2, Q9BQ51

| effect of a mutation on the interaction | Variant |
| --- | --- |
| with no effect | E17K |

Variants of: B6
Conditions: with rbtn1_human LMO1, P25800

| effect of a mutation on the interaction | Variant |
| --- | --- |
| with no effect | E17K |
